Assay results reported in patent US7119100B2 (priority 2001, dated 2006).
Like-named read-outs stand apart in the source and are kept apart here. Only a part of the results on these compounds is given; other tests are left out.

Assays:
mice [1] = assay: acetic acid writhing test
mice [2] = assay: mice 55° C. hot plate test (sc/po)
Wistar rats [3] = assay: rat 55° C. hot water bath test
Wistar rats [4] = assay: self-administration testing in rat; settings: I1 0.05, 0.08, 0.1 mg·kg^−1, continuous 35–40 days session
rhesus monkey = assay: substitution test in rhesus monkey self-administering morphine; settings: I1 0.025, buprenorphine 0.05 mg·kg^−1/inject, morphine 0.25 mg/kg/inject
[5] = tested on: opiate receptors of rat brain; assay: 3H-naloxone binding, Na+ index determination; settings: for IC50: 5 nmol·L^−1 3H-naloxone, rat brain membrane
[6] = background art; cited from earlier work
rats = assay: rat formaldehyde test
Swiss mice = assay: conditioned place preference testing in mice; settings: morphine 10, buprenorphine 0.3, I1 3 and 10 mg·kg^−1
mice [7] = assay: tail-flick test, s.c. and p.o. administration

buprenorphine
acetic acid writhing test ED50 (mice [1]): 0.0073 mg/kg
acetic acid writhing test Max. efficacy (mice [1]): 92.5%
ED50 P.O (mice [1]; Acetic Writhing, p.o.): 0.37 mg/kg
ED50 S.C (mice [1]; Acetic Writhing, s.c.): 0.02 mg/kg
acetic acid writhing test Max. efficacy (mice [1]; listed as Bup): 90%
hot plate test ED50 (mice [2]; 55° C.): 1.1 mg/kg
hot plate test Max. efficacy (mice [2]; 55° C.): 40.3%
hot plate test Max. efficacy (mice [2]; 55° C., listed as Bup): 40%
ED50 P.O (mice [2]; Hot plate, p.o.): 12.52 mg/kg
ED50 S.C (mice [2]; Hot plate, s.c.): 1.01 mg/kg
hot water bath test ED50 (Wistar rats [3]): 8.75 mg/kg
hot water bath test Max. efficacy (Wistar rats [3]): 64.7%
induction of self-administration (Wistar rats [4]): couldn't induce self-administration
self-administration in the place of morphine (rhesus monkey): could continue self-administration
Na^+ index ([5]; ratio of IC50 in presence of NaCl to IC50 in absence): 0.67
IC50 ([5]; read-out: IC50 Free of Na^+, no NaCl): 0.45 nM
IC50 ([5]; read-out: IC50 Presence of Na^+, 100 nmol·L^−1 NaCl): 0.3 nM
loss weight (Wister rats; Tid × 7d: morphine 30, buprenorphine 5, I1 3 mg·kg^−1, naloxone): 4.2 ± 2.5 g
loss weight (Wister rats; Tid × 14d: morphine 30, buprenorphine 5, I1 3 mg·kg^−1, naloxone): 4.2 ± 1.3 g
bioavailability [6]: low bioavailability
formaldehyde test ED50 (rats): 0.34 mg/kg
formaldehyde test Max. efficacy (rats): 97.7%
induction of Conditioned Place Preference (Swiss mice): induced significant Conditioned Place Preference
effect p.o. where no ED50 is given (footnote) (mice [7]; p.o.): *<30%
ED50 S.C (mice [7]; s.c.): 8.75 mg/kg
